Q: Which logP does the source give for `O=C(O)CCCCC(=O)O` here?
A: The logP was 0.08.

From the SangsterLogP compilation
